Reference: patent publication US9855265B2, “Methods for treating cancer with TrkA receptor tyrosine kinase antagonists” (VM Oncology LLC, priority 2014, dated 2018)

System: PANC-1 subcutaneous human pancreatic cancer xenografts
Assay: PANC-1 Subcutaneous Human Pancreatic Cancer Xenograft Mouse Model
Conditions: Day 18; gemcitabine 20 mg/kg (alone or with Compound-12, see label)

## Nc1ccn([C@@H]2O[C@H](CO)[C@@H](O)C2(F)F)c(=O)n1 [Gemcitabine, gemcitabine]
  Tumor volume (Mean ± SEM): 184 ± 13 mm^3
